Several values for one entry are separate records, joined by “and”; a condition that tells them apart may be missing. Identical values can stand only once.
Legend:
[1] = system: Echinochloa crus-galli; assay: Glasshouse experiment 2, percentage phytotoxicity after 19 days; assay type: in vivo; conditions: bromoxynil alone 35,70,140 g a.e./ha (r3-r5), 3 leaf growth stage
Protocol: Agricultural surfactant-nonylphenol ethylene oxide condensate containing 9 moles ethylene oxide was added to all spray dilutions to give 0.2% v/v concentration.
After spraying, the pots were arranged in randomised blocks in a glasshouse, watered as necessary, and assessed after 19 days for percentage phytotoxicity (reduction in green area compared with unsprayed plants) (0 = no effect; 100 = complete destruction).
The results were then used to plot an isobole with a "one-sided effect" according to the methods of P.M.L. Tammes op.cit.

[2] = system: maize var. Irla; assay: Glasshouse experiment 4, percentage phytotoxicity on crop after 11 days; conditions: for % crop phytotoxicity Maize (3-4 leaves): Compound (74 or 99) 0 g/ha
Protocol: Agricultural surfactant ('Agral') was added to the spray dilutions to give 0.2%v/v concentration.
After spraying the pots were arranged in randomised blocks in a glasshouse and water as necessary. After 11 days the plants were assessed for percentage phytotoxicity (reduction in green area compared with unsprayed plants (0 = no effect 100 = complete destruction).
E = X + Y […] where E, X and Y are percentage phytotoxicity.
The ED values were then used to plot an isobole for each mixture according to the method of P.M.L. Tammes op cit.

For `N#Cc1cc(Br)c(O)c(Br)c1` [Bromoxynil, 3,5-dibromo-4-hydroxybenzonitrile], the percentage phytotoxicity [1] was 0, the “% crop phytotoxicity Maize (3-4 leaves)” value ([2]; Bromoxynil 70 g/ha) was 0% and the “% crop phytotoxicity Maize (3-4 leaves)” value ([2]; Bromoxynil 140 g/ha) was 0%. The “% crop phytotoxicity Maize (3-4 leaves)” value ([2]; Bromoxynil 280 g/ha) was 0% and 1% and the “ED₂₀ crop phytotoxicity Maize (3-4 leaves)” value ([2]; applied alone) was “ED₂₀(g/ha) >280”.
